The values that follow come from US20220409725A1 (Genentech, published 2022).

By Kd is commonly meant the equilibrium constant for the complex coming apart. Low readings indicate a tighter complex, high ones a looser complex.

In this assay the target is T1, HER2 (UniProt P04626, in part).
T1 construct: also called ERBB2 (Her-2); p185HER2
Kind of assay: SPR. For orientation: In SPR one partner is held on a chip, and binding of the other changes the refractive index at the surface.

B1: 4D5 Fab modified to contain Q39E in VH and Q38K in VL (Fab, name in Kabat numbering, V domains shown)
VH: [sequence of about 120 residues omitted]
VL: DIQMTQSPSSLSASVGDRVTITCRASQDVNTAVAWYQKKPGKAPKLLIYSASFLYSGVPSRFSGSRSGTDFTLTISSLQPEDFATYYCQQHYTTPPTFGQGTKVEIKR
notes: also called EKvariable
Turning to B1, binding was put at a Kd of 0.67 nM.

B2: 4D5 Fab modified to contain Q39K in VH and Q38E in VL (Fab, name in Kabat numbering, V domains shown)
VH: [sequence of about 120 residues omitted]
VL: DIQMTQSPSSLSASVGDRVTITCRASQDVNTAVAWYQEKPGKAPKLLIYSASFLYSGVPSRFSGSRSGTDFTLTISSLQPEDFATYYCQQHYTTPPTFGQGTKVEIKR
notes: also called KEvariable
B2: the Kd is 0.44 nM.
